According to ChEMBL document CHEMBL4425102, “Structure-Based Design of Tetrahydroisoquinoline-7-carboxamides as Selective Discoidin Domain Receptor 1 (DDR1) Inhibitors” (J Med Chem, 2016):

Assay: Apparent clearance in ICR mouse at 1 mg/kg, iv measured after 5 mins to 24 hrs by HPLC/MS analysis
Format: ADME, organism-based
Settings: in vivo

Cc1cn(-c2cc(NC(=O)c3ccc4c(c3)CN(c3cncnc3)C[C@@H]4C)cc(C(F)(F)F)c2)cn1
CL(app): 13 mL/min/kg
